Test system: Palmer amaranth
Assay: Greenhouse experiment, GST blockers added to KFD-581-01, Palmer amaranth control and biomass reduction
Assay type: in vivo, Amaranthus palmi
Conditions: 67 g ai/ha versus 17 or 34 g ai/ha, + KFD-581-01 300 g ai/ha

## O=[N+]([O-])c1ccc(Cl)c2nonc12
  Efficacy at the highest rate versus low or mid rates: decreased efficacy at the highest rate

— patent US20220312768A1, “COMBINATIONS OF AGROCHEMICALS WITH METABOLIC INHIBITORS” (THE BOARD OF TRUSTEES OF THE UNIVERSITY OF ARKANSAS, priority 2021, published 2022)
